Where a name gives a salt, the structure may show the parent alone.
Tests used:
[1] = tested on: isolated tracheal muscle preparations of Male Hartley guinea pigs; assay: Bronchodilating activity: relaxation of histamine-induced contraction of isolated tracheal muscle preparations (Magnus' method); design: species or system guinea pig (Male Hartley); conditions: for Potency ratio (to Isoproterenol): from molar concentration giving 50% relaxation of histamine-induced tracheal contraction, histamine 2HCl 1×10^-5 g/ml, Tyrode's solution 37° C.
Experimental: Isolated tracheal muscle preparations of Male Hartley guinea pigs (body weight: 430-645 g) were used to estimate the bronchodilating activity of a test compound according to Magnus' method. The preparation was suspended in an organ bath filled with 20 ml of Tyrode's solution (37° C.), and said solution was continuously bubbled with air. Histamine 2HCl was added to the bath (final concentration; 1×10^-5 g/ml) and the test compound was added thereto about 15 minutes after the addition of histamine 2HCl. Tension changes in the tracheal smooth muscle were recorded isometrically with a force-displacement transducer. Molar conentration of the test compound which produced 50% relaxation of the histamine-induced tracheal contraction were estimated from the concentration-response curve, and the potency ratio of the test compound to Isoproterenol was calculated therefrom.

in vivo = conditions: mouse, iv
Experimental: A test compound was dissolved in 5% glucose solution, and the test compound solution (0.2 ml/10 g of body weight) was administered intravenously to Male ddY strain mice (body weight: 25-28 g). The LD50 of the test compound was estimated by the Up and Down method.

[2] = tested on: β2-adrenoceptor / β1-adrenoceptor; conditions: β1: positive chronotropic action (e.g., increase in heart rate)

| Compound | Potency ratio (to Isoproterenol) [1] | selectivity ratio (in vivo) | potency ratio of the β2-adrenoceptor stimulating action to the β1-adrenoceptor stimulating action (in words) [2] | bronchodilating activity (in words) [1] | β2-adrenoceptor stimulating action (in words) (β2-adrenoceptor) |
| --- | --- | --- | --- | --- | --- |
| COc1ccc(C[C@@H](C)NC[C@H](O)c2ccc(O)c3[nH]c(=O)ccc23)cc1 (relative stereo) [Comp. No. 2, 8-hydroxy-5-{1-hydroxy-2-[N-(2-(p-methoxyphenyl)-1-methylethyl)amino]ethyl}carbotyril (α-isomer) hydrochloride] | 78 | 510000 | – | – | – |
| COc1ccc(C[C@@H](C)NC[C@H](O)c2ccc(O)c3[nH]c(=O)ccc23)cc1.Cl [Comp. No. 1, 8-hydroxy-5-{(1R)-1-hydroxy-2-[N-((1R)-2-(p-methoxyphenyl)-1-methylethyl)amino]ethyl}carbostyril hydrochloride] | 166 | 940000 | – | – | – |
| COc1ccc(CC(C)NCC(O)c2ccc(O)c3[nH]c(=O)ccc23)cc1 (centres unmarked) [Comp. No. 3, 8Hydroxy-5-{1hydroxy-2-[N--(2op-methoxy-phenyl)-1-methylethyliamino]ethylcarbostyril hydrochloride] | 52 | – | – | – | – |
| COc1ccc(CC(C)NCC(O)c2ccc(O)c3[nH]c(=O)ccc23)cc1 (centres unmarked) [compound (I)] | – | – | high | potent | potent |
